Data reported in patent publication US20090004112A1, “METHODS FOR THE TREATMENT OF NEURODEGENERATIVE DISEASES USING NMDA RECEPTOR GLYCINE SITE ANTAGONISTS” (THE TRUSTEES OF COLUMBIA UNIVERSITY IN THE CITY OF NEW YORK, priority 2006, published 2009).

Test system: LRRK2 G2019S mutant expressing neurons
Details: for suppression of the neurite length phenotype (neurite toxicity) of the G2019S LRRK2 allele: 10 μM, ratio of G2019S longest process length over wild-type longest process length, as percentage of vehicle (0.1% DMSO), primary rat cortical cultures; for block of LRRK2 toxicity: concentration not given

Structure (SMILES)	suppression of the neurite length phenotype (neurite toxicity) of the G2019S LRRK2 allele	suppression of the neurite length phenotype (neurite toxicity) of the G2019S LRRK2 allele (listed as ACBC)	block of LRRK2 toxicity
NC1(C(=O)O)CCC1 [1-aminocyclobutane carboxylic acid]	significantly suppress	significantly suppressed	effectively block LRRK2 toxicity
NC(CCCP(=O)(O)O)C(=O)O (centres unmarked) [AP-5, 2-amino-5-phosphonopentanoate]			effectively block LRRK2 toxicity
O=c1c(-c2cccc(Oc3ccccc3)c2)c(O)[nH]c2cc(Cl)ccc12 [L-701,324, 7-chloro-2-hydroxy-3-[3-(phenoxy)phenyl]-1H-quinolin-4-one]			effectively block LRRK2 toxicity
C[C@]12N[C@H](Cc3ccccc31)c1ccccc12 [MK-801]			effectively block LRRK2 toxicity
O=C1CC(c2ccccc2)Oc2ccccc21 (centres unmarked) [flavanone]			effectively block LRRK2 toxicity
Nc1ccccc1C(=O)CC(N)C(=O)O (centres unmarked) [kynurenine]			effectively block LRRK2 toxicity

Where two headings read alike, the source gives them in different places.
